This experiment has as its target AKAP18delta-RIIalpha interaction (GST-AKAP18delta binding to plate-bound PKA-RIIalpha) (Rattus norvegicus, UniProt P12368+Q6JP77). Nature of the experiment: ELISA for quantitative detection of protein-protein binding between PKA-RIIalpha and GST-AKAP18delta (library screening, validation, IC50). The conditions noted are these: substance 244 μM, control without substance = 100%. The text has this:
ELISA is a method wherein an antigen is detected with a specific antibody. Detection proceeds via an enzyme linked covalently with one of the binding partners, which enzyme catalyzes chromogen conversion.
Because one of the two binding partners is immobilized, removal of unbound antibodies or antigens is very easy. Detection proceeds via observing the intensity (I) of chemiluminescence using a photomultiplier in a special reading device (ELISA reader). The output of the measured values is in relative light units (RLU).
In the present case, the point was to investigate whether binding of one protein (PKA) to another (AKAP18delta-GST) would be inhibited by the presence of small organic molecules. A sandwich ELISA was therefore developed wherein the RIIalpha PKA subunit, to which AKAP proteins bind, was bound on 384-well microtiter plates (MTP).
The white color improves detection by reflection of the chemiluminescence being formed and simultaneously prevents illumination of neighboring wells. […] Subsequently, bound GST-AKAP18delta was quantified via antibodies and chemiluminescence. […]
To adapt the binding curves to the measured values (see results), the one-site binding model was used as a basis, which model applies to binding of GST-AKAP18delta to RIIalpha. […]
The measured values for IC50 calculation were adapted to the one-site competition model. […]

Protein sequences, listed by entry. Tags and fused reporters are not part of them. Lines headed by an entry give the natural chain unless they say otherwise; changes in a name come on top. Residues count along the entry.
UniProt P12368, 2-401: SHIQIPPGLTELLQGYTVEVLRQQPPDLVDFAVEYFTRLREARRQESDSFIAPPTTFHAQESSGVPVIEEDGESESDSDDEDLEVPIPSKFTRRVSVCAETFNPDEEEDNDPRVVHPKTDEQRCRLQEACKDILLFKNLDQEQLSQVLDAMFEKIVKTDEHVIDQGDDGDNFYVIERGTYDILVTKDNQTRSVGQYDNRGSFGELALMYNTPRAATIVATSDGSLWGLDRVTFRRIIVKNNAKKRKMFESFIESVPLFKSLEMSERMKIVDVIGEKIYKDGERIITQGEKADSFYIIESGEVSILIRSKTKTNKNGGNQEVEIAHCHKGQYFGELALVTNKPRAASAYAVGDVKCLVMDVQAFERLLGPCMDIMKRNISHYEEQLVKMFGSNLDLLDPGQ
UniProt Q6JP77: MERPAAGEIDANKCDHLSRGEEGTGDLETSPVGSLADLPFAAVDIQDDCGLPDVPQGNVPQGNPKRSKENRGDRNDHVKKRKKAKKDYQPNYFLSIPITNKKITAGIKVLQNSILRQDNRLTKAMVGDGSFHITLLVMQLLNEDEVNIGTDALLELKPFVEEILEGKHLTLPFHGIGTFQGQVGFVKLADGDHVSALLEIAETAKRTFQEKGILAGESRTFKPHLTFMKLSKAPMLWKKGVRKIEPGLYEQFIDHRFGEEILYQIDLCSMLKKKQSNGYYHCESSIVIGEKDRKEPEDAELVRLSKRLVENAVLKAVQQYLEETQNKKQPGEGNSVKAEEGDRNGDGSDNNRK

The structures appear in SMILES notation.

For `COc1cc[n+](C(=O)N(C)C)cc1` [Compound 1075], the “Binding (in %): relative binding of GST-AKAP18delta to PKA-RIIalpha in the presence of each substance, based on a control” value worked out at 56.79%.

Source of the values: US20090176773A1, “Non-Peptidic Inhibitors of AKAP/PKA Interaction” (FORSCHUNGSVERBUND BERLIN E.V., priority 2005, published 2009).
